Source: patent US20110129868A1, “CELL CAPABLE OF REPLICATING NOVEL HCV REPLICON, CELL CAPABLE OF REPLICATING FULL-LENGTH HCV RNA, AND USE OF THOSE CELLS” (priority 2008, published 2011)

Tests used:
Assay type in all cases: cell-based, HCV-O strain (genotype 1b)
Settings in all cases: luciferase activity after 72 hours
[1] = tested on: full-length HCV RNA replication in ORL8 cells
Method: (§1) Renilla luciferase was quantified by collecting cells using a Renilla Luciferase Assay System (Promega) according to the manufacturer's experiment protocol.
(§2) Luciferase activity of each cell line was then measured at hour 24, 48, and 72. […] SD values were calculated based on the results from three samples at each point. […]

[2] = tested on: full-length HCV RNA replication in ORL11 cells
Method: as §1, §2

[3] = tested on: full-length HCV RNA replication in OR6 cells
Method: as §1
Drugs reported to have anti-HCV activities were evaluated using an ORL8- or ORL11-cell assay system. An OR6-cell assay system was used as a control. Note that, depending on compounds, use of DMSO or ethanol as a solvent is needed; however, it has been confirmed that the assay system is not affected as long as the DMSO concentration is 0.5% or less, and that the ethanol concentration is 0.2 to 0.25% (data not presented).
IFN-α (0, 0.1, 0.2, 0.5, 1, 2, 10 IU/ml: Sigma, I2396) was added to each cell line, and luciferase activity after 72 hours was measured. By analysis, the EC50 values of the ORL8, ORL11, and OR6 cells were calculated as 0.13 IU/ml, 0.30 IU/ml, and 0.40 IU/ml, respectively. Values close to these were obtained in the same experiment repeated three times, yielding good reproducibility. The ORL8 cells had the highest sensitivity for IFN-α, followed by ORL11 cells and OR6 cells.

Substance: IFN-β: interferon beta, pharmaceutical agent having an anti-HCV action
- EC50 (50% effective drug concentration) [1]: 0.10 IU/ml
- EC50 (50% effective drug concentration) [2]: 0.18 IU/ml
- EC50 [3]: 0.35 IU/ml
